Legend:
[1] = target: BTK kinase (Homo sapiens (Human), UniProt Q06187); test: In vitro assay for the inhibition of BTK kinase activity (Mobility-Shift Assay); format: biochemical; conditions: read-out: BTK IC50
[2] = test system: OCI-LY10 cells; test: Cell proliferation inhibition in vitro, OCI-ly10 cells by CCK-8 method; conditions: read-out: Inhibitions of cell activities IC50 (nM) OCI-LY10, 72 hours
[3] = test system: DOHH2 cells; test: Cell proliferation inhibition in vitro, DOHH2 cells by CTG assay; conditions: read-out: Inhibitions of cell activities IC50 (nM) DOHH2, 72 hours
[4] = test system: TMD8 cells; test: Cell proliferation inhibition in vitro, TMD8 cells by CCK-8 method; conditions: read-out: Inhibitions of cell activities IC50 (nM) TMD8, 72 hours

The chains behind the UniProt entries cited, without tags or fusion partners.
UniProt Q06187, whole entry: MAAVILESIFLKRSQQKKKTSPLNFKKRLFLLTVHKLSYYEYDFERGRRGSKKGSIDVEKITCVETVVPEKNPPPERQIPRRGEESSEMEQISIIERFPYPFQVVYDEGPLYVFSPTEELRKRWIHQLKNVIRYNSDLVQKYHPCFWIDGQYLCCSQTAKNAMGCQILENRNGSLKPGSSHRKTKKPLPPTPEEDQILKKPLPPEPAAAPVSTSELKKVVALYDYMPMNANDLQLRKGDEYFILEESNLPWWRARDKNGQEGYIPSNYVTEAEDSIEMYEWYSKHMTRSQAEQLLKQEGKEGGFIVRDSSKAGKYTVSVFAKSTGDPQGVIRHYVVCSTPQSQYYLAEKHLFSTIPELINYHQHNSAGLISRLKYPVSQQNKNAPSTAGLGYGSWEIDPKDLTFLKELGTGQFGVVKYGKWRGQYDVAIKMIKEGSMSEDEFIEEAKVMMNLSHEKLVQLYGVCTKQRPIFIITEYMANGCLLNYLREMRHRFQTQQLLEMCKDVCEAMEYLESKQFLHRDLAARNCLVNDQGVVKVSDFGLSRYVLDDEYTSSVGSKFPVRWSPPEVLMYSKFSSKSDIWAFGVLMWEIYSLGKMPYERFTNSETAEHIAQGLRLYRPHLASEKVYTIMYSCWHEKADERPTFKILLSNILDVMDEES

Structure (SMILES): CC#CC(=O)N1C[C@H]2[C@@H]([C@H]1c1nc(-c3ccc(Oc4ccccc4)cc3)c3c(N)nccn13)C2(C)C
- IC50 [1]: 7.2 nM
- IC50 [2]: 0.37 nM
- IC50 [3]: 218 nM
- IC50 [4]: 6.9 nM

Structure (SMILES): C=CC(=O)N1C[C@H]2[C@@H]([C@H]1c1nc(-c3ccc(Oc4ccccc4)cc3)c3c(N)nccn13)C2(C)C
- IC50 [1]: 14.3 nM
- IC50 [2]: 0.67 nM
- IC50 [3]: 314 nM
- IC50 [4]: 7.4 nM

Reference: patent US10793576B2, “Compound used as Bruton's tyrosine kinase inhibitor and preparation method and application thereof” (Chengdu Brilliant Pharmaceutical Co., LTD., priority 2017, dated 2020)
